Target: Peroxisome proliferator-activated receptor gamma (Mus musculus) (UniProt P37238)
Test: Agonist activity at PPARgamma in mouse 3T3L1 cells assessed as 4619 microarray gene expression relative to rosiglitazone
Type: functional, cell-based
Conditions: 3T3-L1

Amino acid sequences for entries named in this document (tags omitted).
UniProt P37238, whole entry: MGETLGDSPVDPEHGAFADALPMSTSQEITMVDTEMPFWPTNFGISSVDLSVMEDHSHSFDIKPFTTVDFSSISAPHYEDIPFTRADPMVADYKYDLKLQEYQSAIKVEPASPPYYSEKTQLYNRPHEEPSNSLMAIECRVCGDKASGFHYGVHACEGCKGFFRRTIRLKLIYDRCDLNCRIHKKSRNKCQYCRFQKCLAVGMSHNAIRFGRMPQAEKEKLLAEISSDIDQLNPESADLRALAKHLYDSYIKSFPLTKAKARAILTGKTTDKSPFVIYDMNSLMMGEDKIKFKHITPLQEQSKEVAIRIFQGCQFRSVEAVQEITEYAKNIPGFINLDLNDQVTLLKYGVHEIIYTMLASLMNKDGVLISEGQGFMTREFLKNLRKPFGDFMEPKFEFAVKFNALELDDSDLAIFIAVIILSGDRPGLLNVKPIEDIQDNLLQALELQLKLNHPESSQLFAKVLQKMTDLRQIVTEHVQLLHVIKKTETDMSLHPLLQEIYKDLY

## COc1ccc2c(-n3c(=O)n(Cc4cccc([C@@]5(C)OC(=O)NC5=O)c4)c4ccccc43)noc2c1
  Ratio: 0.71

Source: ChEMBL document CHEMBL1944523, “Benzimidazolones: a new class of selective peroxisome proliferator-activated receptor γ (PPARγ) modulators” (J Med Chem, 2011)
